Reference: patent publication US20040166508A1, “Analytical platform and detection method with the analytes to be determined in a sample as immobilized specific binding partners, optionally after fractionation of said sample” (priority 2002, published 2004)

System: p44/42 MAP kinase (Erk2 and pErk2)
Experiment: Detection of total Erk2/pErk2 (p44/42 MAP kinase) in immobilized Jurkat cell lysates (antibody A4)
Type: cell-based, human
Conditions: Jurkat cells treated with 10 μM for 180 min

## CN[C@@H]1C[C@H]2O[C@@](C)([C@@H]1OC)n1c3ccccc3c3c4c(c5c6ccccc6n2c5c31)C(=O)NC4 [staurosporin, staurosporine]
  relative total content of Erk2/pErk2 in comparison with the other samples: no difference
